Test results published in patent publication US11554103B2, “Compositions and methods to reduce pharmaceutical-induced toxicity” (priority 2016, dated 2023).

Legend:
[1] = tested on: substantia nigra pars compacta dopaminergic neurons; assay: Ex vivo brain slice cytosolic oxidant stress, cyto-roGFP probe, two photon microscopy; assay type: cell-based, mouse; details: for axonal cytosolic stress / cytosolic stress in distal dendrites / somatic cytosolic stress / dendritic cytosolic stress with monoamine oxidase-B inhibited / terminal cytosolic stress with monoamine oxidase-B inhibited: 10 μM methamphetamine or 100 μM levodopa; for dendritic cytosolic stress with monoamine oxidase-B inhibited / terminal cytosolic stress with monoamine oxidase-B inhibited: with 10 μM rasagiline; for cytosolic stress under conditions of monoamine oxidase-B inhibition: Example 1 summary; for cytosolic oxidant stress: cell bodies, dendrites, striatal axons, methamphetamine 10 μM, levodopa 100 μM
Experimental: Animals and treatment paradigms: Male C57/B16 and TH-mitoroGFP (Guzman et al., 2010 Nature p. 696; incorporated by reference in its entirety) mice 5-8 wks of age were used for all imaging studies. In addition to the TH-mitoroGFP transgenic line, roGFP was virally delivered into the SNc of C57/B16 mice (either targeting cytosolic or mitochondrial compartments). For dopamine depletion experiments, mice were administered 5 mg/kg reserpine for 5 consecutive days and sacrificed on the 5th day (Day et al., 2006 Nat Neurosci p. 251; incorporated by reference in its entirety). For stereological investigations, mice were administered saline, 5 mg/kg methamphetamine, or 5 mg/kg methamphetamine with a 30 min pretreatment of 1 mg/kg rasagiline for 14 consecutive days and sacrificed after 14 days withdrawal.
(§1) Two photon microscopy: Ex vivo slices of the dorsolateral striatum or SNc were prepared and redox status determined as previously described (Guzman et al., 2010 Nature p. 696; incorporated by reference in its entirety). Oxidant stress was measured in control slices, with bath application of 10 μM methamphetamine or preincubated with 100 μM levodopa. The dynamic range of the probe was determined by perfusing 2 mM dithiothreitol (DTT) to fully reduce the probe and 200 μM aldrithiol to fully oxidize the probe; data presented as % relative oxidation.
(§2) Stereotaxic surgery: PCR amplified roGFP, mitoroGFP and IMSroGFP inserts were subcloned into pFB-TH-SV40pA vector between EcoR1 and SalI sites. After sequence and expression verification, pFB-TH-roGFP vectors were packaged into rAAVs using serotype 9 with titers 2.1-×10^13 viral genome copies/ml (Virovek). Mice were anesthetized using an isoflurane precision vaporizer (Smiths Medical PM) and placed in a stereotaxic frame (David Kopf Instruments) with a Cunningham adaptor (Harvard Apparatus) to maintain anesthesia delivery throughout surgery. After exposing the skull, a small hole was drilled and 350 nL of AAV9-TH-cytosolic roGFP or AAV9-TH-mitoroGFP delivered via a glass micropipette (Drummond Scientific Company) pulled on a Sutter P-97 puller. The substantia nigra pars compacta (SNc) was targeted at the following coordinates: AP: −3.05, ML: 1.20, and DV −4.30. All surgeries were performed in wild-type mice. Experiments in animals with stereotaxic delivery of AAV viral vectors were performed after at least 10 days post-op.
(§3) Once perfused the brain was rapidly removed and either saggital or coronal slices containing the dorsolateral striatum (275 μm thick) or the SNc (220 μm thick) sectioned using a vibratome (VT1200S Leica Microsystems). Slices were transferred to a holding chamber containing normal aCSF containing in mM: 124.0 NaCl, 3.0 KCl, 2.0 CaCl2, 1.0 MgCl2, 26 NaHCO3, 1.0 NaH2PO4, and 16.66 glucose and allowed at least 30-40 minutes to recover prior to experiments. All solutions were pH 7.4, 310-320 mOsm and continually bubbled with 95% O2/5% CO2.
Ex vivo redox measurements and two photon microscopy: Oxidant stress was assessed using the redox sensitive roGFP probe targeted either to the cytosol or mitochondrial matrix as previously described.^10 Slices were transferred to a recording chamber and continuously perfused with normal aCSF at 32-34° C. Fluorescence was measured using an Ultima Laser Scanning Microscope system (Bruker) with a DODT contrast detector to provide bright-field transmission images with an Olympus 60/0.9NA lens. A two-photon laser (Chameleon Ultra II, Coherent Inc.) tuned to 920 nm was used to excite roGFP. Time series image acquisitions of the roGFP probe were obtained with 60 frames obtained over ˜20 seconds with 0.195 μm×0.195 μm pixels and 10-12 μsec dwell times. The dynamic range of the probe was determined with 2 mM dithiothreitol, a reducing agent, and 200 μM aldrithiol, an oxidizing agent, which were sequentially perfused and t-series acquired with each to determine the maximal and minimal fluorescence intensity. […]

[2] = tested on: substantia nigra pars compacta dopaminergic neurons; assay: Ex vivo brain slice mitochondrial oxidant stress, mito-roGFP probe, two photon microscopy; assay type: cell-based, mouse; details: for somatic mitochondrial stress / mitochondrial stress at dopamine release sites: 10 μM methamphetamine or 100 μM levodopa; for mitochondrial stress at dopamine release sites: Example 1
Experimental: Animals and treatment paradigms: Male C57/B16 and TH-mitoroGFP (Guzman et al., 2010 Nature p. 696; incorporated by reference in its entirety) mice 5-8 wks of age were used for all imaging studies. In addition to the TH-mitoroGFP transgenic line, roGFP was virally delivered into the SNc of C57/B16 mice (either targeting cytosolic or mitochondrial compartments).
as §1, with “Oxidant stress was measured in control slices, with bath application of 10 μM methamphetamine or preincubated with 100 μM levodopa.” left out
as §2
as §3, with “Ex vivo slice preparation: Mice were terminally anesthetized with a mixture of ketamine (50 mg/kg)/xylazine (4.5 mg/kg) and transcardially perfused with ice cold modified artificial cerebrospinal fluid (aCSF) containing in mM: 124.0 NaCl, 3.0 KCl, 1.0 CaCl2, 2.0 MgCl2, 26 NaHCO3, 1.0 NaH2PO4, and 16.66 glucose. Once” for “Once”
Ex vivo redox measurements and two photon microscopy: Oxidant stress was assessed using the redox sensitive roGFP probe targeted either to the cytosol or mitochondrial matrix as previously described.^10 Slices were transferred to a recording chamber and continuously perfused with normal aCSF at 32-34° C. Fluorescence was measured using an Ultima Laser Scanning Microscope system (Bruker) with a DODT contrast detector to provide bright-field transmission images with an Olympus 60/0.9NA lens. A two-photon laser (Chameleon Ultra II, Coherent Inc.) tuned to 920 nm was used to excite roGFP. Time series image acquisitions of the roGFP probe were obtained with 60 frames obtained over ˜20 seconds with 0.195 μm×0.195 μm pixels and 10-12 μsec dwell times.

[3] = tested on: human iPSC-derived dopamine neurons; assay: Mitochondrial membrane potential measured by TMRM; assay type: cell-based; details: levodopa after inhibition of complex III (myxothiazol) and ANT (carboxyatractyloside)
Experimental: To monitor changes in mitochondria membrane potential, dopaminergic neurons were loaded with 20 nM TMRM for 45 min, washed, and maintained in 2 nM TMRM during imaging. Cells were exposed at 550 nm for 50 ms, and time-lapse images were captured every 30 sec. After imaging approximately 15 min to establish stable baselines, complex III inhibitor myxothiazol (2 μM) and adenine nucleotide translocase inhibitor carboxyatractyloside (1 μM) were added to perfusion buffer for the remainder of the imaging. Thirty minutes later, cells were treated with 100 μM levodopa and imaging continued for an additional 30 min; to test MAO inhibition, 10 μM rasagiline/5 μM clorgyline were added 30 min prior to 100 μM levodopa. Regions of interest with stable baseline fluorescence (less than 15% variation) were individually fit with centered, second order polynomial regressions (average r^2>0.90 in all experiments), using data from the thirty minutes following complex III/ANT inhibition (prior to levodopa administration). The mitochondrial polarization index was calculated by dividing observed data by modeled data; deviation of polarization indices from 1.0 indicated deviation from decay trajectory.

[4] = 10 μM drug alone, relative to control (aCSF), dorsolateral striatum slices
[5] = mice lacking both MAO-A and MAO-B, methamphetamine 10 μM, levodopa 100 μM

SMILES | axonal cytosolic stress [1] | cytosolic stress in distal dendrites [1] | somatic cytosolic stress [1] | dendritic cytosolic stress with monoamine oxidase-B inhibited [1] | terminal cytosolic stress with monoamine oxidase-B inhibited [1] | cytosolic stress under conditions of monoamine oxidase-B inhibition [1] | cytosolic oxidant stress [1] | axonal (terminal) mitochondrial stress [2, 4] | somatic mitochondrial stress [2] | mitochondrial stress at dopamine release sites [2] | axonal mitochondrial stress [2, 5] | also measured
CNC(C)Cc1ccccc1 (centres unmarked) [methamphetamine, N-methylamphetamine] | had no effect on cytosolic stress | had no effect on cytosolic stress | unaffected; also recorded: unaltered | only increased by meth and levodopa when monoamine oxidase-B was inhibited | only increased by meth and levodopa when monoamine oxidase-B was inhibited | increased | unaffected; also recorded: failed to increase cytosolic oxidant stress | significantly increased mitochondrial oxidant stress selectively in axons; also recorded: increased axonal mitochondrial stress | neither drug had any effect on somatic mitochondrial redox status; also recorded: unchanged | selectively increased mitochondrial stress at dopamine release sites | Neither methamphetamine nor levodopa increased axonal mitochondrial oxidant stress; also recorded: neither +methA (10 μM) or +1-dopa (100 μM) had any effect | axonal mitochondrial stress ([2]; 1 μM methamphetamine alone, relative to control): had no measurable effect on mitochondrial redox status; also recorded: not significantly altered; axonal mitochondrial stress ([2]; 1 μM methamphetamine combined with 15 mM KCl): significant elevation in mitochondrial oxidant stress; also recorded: increased by the combination of +methA and +KCl; dendritic mitochondrial stress ([2]; 10 μM methamphetamine alone): increased; axonal (terminal) mitochondrial stress ([2]; 10 μM methamphetamine, slices from reserpinized mice): had no effect on terminal mitochondrial stress; also recorded: had no effect on axonal mitochondrial stress
COC(=O)C(c1ccccc1)C1CCCCN1 (centres unmarked) [methylphenidate] | – | – | – | – | – | – | – | – | – | – | – | axonal mitochondrial stress ([2]; 5 μM drug alone, relative to control): had no effect; axonal mitochondrial stress ([2]; 5 μM drug alone, relative to control, listed as methyphenidate): had no effect on mitochondrial oxidant stress
COC(=O)[C@H]1[C@H]2C[C@@H]3c4[nH]c5cc(OC)ccc5c4CCN3C[C@H]2C[C@@H](OC(=O)c2cc(OC)c(OC)c(OC)c2)[C@@H]1OC [reserpine] | – | – | – | – | – | – | – | – | – | – | – | effect of reserpine pretreatment on the mitochondrial redox effects of methamphetamine ([2]; mice pretreated with reserpine (5 mg/kg, five days), depletion of vesicular DA): eliminated the mitochondrial redox effects of methamphetamine
C[C@H](N)Cc1ccccc1 [d-amphetamine, dextroamphetamine] | – | – | – | – | – | – | – | increased mitochondrial oxidant stress in SNc DA axons in a MAO-dependent manner; also recorded: increased axonal mitochondrial stress | – | – | – | –
N[C@@H](Cc1ccc(O)c(O)c1)C(=O)O [levodopa, L-3,4-dihydroxyphenylalanine] | had no effect on cytosolic stress | had no effect on cytosolic stress | unaffected; also recorded: unaltered | only increased by meth and levodopa when monoamine oxidase-B was inhibited | only increased by meth and levodopa when monoamine oxidase-B was inhibited | increased | unaffected; also recorded: had no effect on cytosolic oxidant stress | – | neither drug had any effect on somatic mitochondrial redox status; also recorded: unchanged | selectively increased mitochondrial stress at dopamine release sites | Neither methamphetamine nor levodopa increased axonal mitochondrial oxidant stress; also recorded: neither +methA (10 μM) or +1-dopa (100 μM) had any effect | TMRM fluorescence decay / polarization index [3]: consistently slowed the decline in TMRM fluorescence; also recorded: caused a significant deviation; also recorded: trajectory of the decay was changed; dendritic mitochondrial stress ([2]; 100 μM levodopa alone): increased; axonal (terminal) mitochondrial stress ([2]; 100 μM levodopa alone, relative to control): significantly increased mitochondrial oxidant stress selectively in axons; also recorded: increased axonal mitochondrial stress

“Also recorded” adds a separate entry of the source.
